Test results taken from PubChem BioAssay AID588458 (Sanford-Burnham Center for Chemical Genomics, 2011).
The entries are a selection whose mix differs from that of the whole data set. The source made the active and inactive calls. Rule as the data show it: active = inhibition above about 50%; inactive = the rest.

Chains of the proteins cited; added tags and fusions are not shown. Lines headed by an entry give the natural chain unless they say otherwise; changes in a name come on top.
UniProt P26358: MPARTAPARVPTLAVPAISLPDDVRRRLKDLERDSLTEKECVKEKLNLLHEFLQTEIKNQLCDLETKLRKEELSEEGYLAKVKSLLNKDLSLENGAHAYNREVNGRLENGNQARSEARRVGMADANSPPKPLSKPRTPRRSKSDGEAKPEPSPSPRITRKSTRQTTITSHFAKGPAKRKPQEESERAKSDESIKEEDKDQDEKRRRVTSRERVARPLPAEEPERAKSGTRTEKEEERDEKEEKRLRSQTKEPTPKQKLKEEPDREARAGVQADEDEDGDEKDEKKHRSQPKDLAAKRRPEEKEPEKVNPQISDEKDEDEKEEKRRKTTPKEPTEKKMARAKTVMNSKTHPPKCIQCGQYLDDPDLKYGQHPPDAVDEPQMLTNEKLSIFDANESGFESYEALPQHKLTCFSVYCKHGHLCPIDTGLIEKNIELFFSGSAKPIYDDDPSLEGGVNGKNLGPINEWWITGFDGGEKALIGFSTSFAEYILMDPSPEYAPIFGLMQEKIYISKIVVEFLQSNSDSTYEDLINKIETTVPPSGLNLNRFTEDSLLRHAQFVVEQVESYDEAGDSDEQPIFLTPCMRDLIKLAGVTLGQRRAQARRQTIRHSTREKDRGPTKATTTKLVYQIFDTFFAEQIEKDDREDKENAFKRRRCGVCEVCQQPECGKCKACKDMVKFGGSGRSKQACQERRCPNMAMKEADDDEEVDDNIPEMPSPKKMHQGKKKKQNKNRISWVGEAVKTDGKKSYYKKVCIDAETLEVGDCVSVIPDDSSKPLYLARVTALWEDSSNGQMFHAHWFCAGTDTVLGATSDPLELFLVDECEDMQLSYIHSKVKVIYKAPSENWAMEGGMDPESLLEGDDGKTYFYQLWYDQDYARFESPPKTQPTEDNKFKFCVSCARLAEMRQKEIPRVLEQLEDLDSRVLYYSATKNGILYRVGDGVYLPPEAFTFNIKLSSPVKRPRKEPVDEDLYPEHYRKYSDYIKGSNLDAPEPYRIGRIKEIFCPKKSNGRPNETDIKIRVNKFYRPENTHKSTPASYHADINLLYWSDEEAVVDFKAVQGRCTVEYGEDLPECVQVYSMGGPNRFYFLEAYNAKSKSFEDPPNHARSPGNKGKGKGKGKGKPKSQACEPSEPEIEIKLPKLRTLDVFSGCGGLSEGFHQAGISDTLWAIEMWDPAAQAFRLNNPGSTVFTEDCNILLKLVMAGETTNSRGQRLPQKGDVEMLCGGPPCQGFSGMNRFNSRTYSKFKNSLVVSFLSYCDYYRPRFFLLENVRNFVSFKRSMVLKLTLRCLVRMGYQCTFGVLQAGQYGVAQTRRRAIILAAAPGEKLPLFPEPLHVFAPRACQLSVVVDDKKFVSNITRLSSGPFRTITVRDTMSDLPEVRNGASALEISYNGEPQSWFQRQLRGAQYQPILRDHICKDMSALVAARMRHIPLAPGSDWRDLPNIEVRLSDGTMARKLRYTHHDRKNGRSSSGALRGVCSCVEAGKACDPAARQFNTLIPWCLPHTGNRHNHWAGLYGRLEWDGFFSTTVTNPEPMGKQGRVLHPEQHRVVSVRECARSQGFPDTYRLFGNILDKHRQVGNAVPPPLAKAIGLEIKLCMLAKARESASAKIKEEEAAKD

These molecules were tested against DNA (cytosine-5)-methyltransferase 1 (Homo sapiens) (UniProt P26358) (assay: human DNMT1 methyltransferase inhibitors, primary screen, biochemical, molecular beacon, fluorescence, HinP1I cleavage, uHTS (AID 588458)). Details: at 10 µM, stronger effect = higher value.
With O=C(O)COc1ccc([As](=O)(O)O)cc1[N+](=O)[O-] the inhibition (reported as % activation of signal) was inactive: -8.96%. For Nc1ccccc1[As](=O)(O)c1ccccc1, the inhibition (reported as % activation of signal) was inactive: -2.25%. CS(=O)(=O)c1cc([N+](=O)[O-])c2no[n+]([O-])c2c1 was tested, and the inhibition (reported as % activation of signal) was inactive: -6.93%. In the case of CCOP1(=S)c2c(C)nn(CCC#N)c2N=C(c2ccccc2F)N1C (configuration not stated), the inhibition (reported as % activation of signal) is reported as inactive: -3.85%. For O=P(Nc1nccs1)(Oc1ccccc1)Oc1ccccc1, the inhibition (reported as % activation of signal) was inactive: 9.61%. With O=P(Nc1nccs1)(c1ccccc1)c1nc2ccccc2s1 (configuration not stated) the inhibition (reported as % activation of signal) was active: 51.1%. With CC(C)NC(=O)NP(=O)(Oc1ccccc1)Oc1ccccc1 the inhibition (reported as % activation of signal) was inactive: 4.19%. With CCN(CC)C(=S)SC(NC=O)C(Cl)(Cl)Cl (configuration not stated) the inhibition (reported as % activation of signal) was inactive: 2.48%. O=C(OC1CN2CCC1CC2)c1cccc2[nH]cnc12 (configuration not stated) was tested, and the inhibition (reported as % activation of signal) was inactive: -1.77%. O=[N+]([O-])c1cc([N+](=O)[O-])c(-c2ccn[nH]2)s1 was tested, and the inhibition (reported as % activation of signal) was inactive: -2.4%. For COC(=O)C1(C)COP(=O)(N2CCCCCC2)OC1 (configuration not stated), the inhibition (reported as % activation of signal) was inactive: 5.03%. CC(C)c1ccc(OP(=O)(Nc2ccccn2)Oc2ccccc2F)cc1 (configuration not stated) was tested, and the inhibition (reported as % activation of signal) was inactive: 4.97%. With ClCCSc1nnc(-c2cccnc2)o1 the inhibition (reported as % activation of signal) was inactive: -0.9%. With Cc1ccc2nc3c(c(C)c2c1)CC(C(Cl)Cl)S3 (configuration not stated) the inhibition (reported as % activation of signal) was inactive: -2.47%. Cc1ccc(OP(=O)(Nc2ccc([N+](=O)[O-])cn2)Oc2ccc(C)cc2)cc1 was tested, and the inhibition (reported as % activation of signal) was inactive: 0.45%. In the case of C[As](=O)(O)c1cccc(C(=O)O)c1, the inhibition (reported as % activation of signal) is reported as inactive: 0.43%. For O=[As](O)(c1ccc(O)cc1)c1ccccc1O, the inhibition (reported as % activation of signal) was inactive: 0.12%. In the case of O=[N+]([O-])c1ccc(-c2cc([N+](=O)[O-])c(O)c([N+](=O)[O-])c2)cc1, the inhibition (reported as % activation of signal) is reported as inactive: -8.1%. COc1cc(C(=O)NCC2(N3CCOCC3)CCCCC2)ccc1OCC(C)C was tested, and the inhibition (reported as % activation of signal) was inactive: -0.84%. With COc1ccc(N/C(=N/P(=O)(N2CCOCC2)N2CCOCC2)N2CCOCC2)cc1 the inhibition (reported as % activation of signal) was inactive: 1.05%. For O=[N+]([O-])c1cc(Oc2ccc([N+](=O)[O-])cc2C(F)(F)F)cc([N+](=O)[O-])c1, the inhibition (reported as % activation of signal) was inactive: -2.79%. For COc1ccc2nc(NP(=O)(c3ccccc3)c3ccccc3)sc2c1, the inhibition (reported as % activation of signal) was inactive: 0.44%. With COc1cc(I)ccc1[As](=O)(O)O the inhibition (reported as % activation of signal) was inactive: 5.94%. With O=P1(N(CCCl)CCCl)OCCCN1CCCl (configuration not stated) the inhibition (reported as % activation of signal) was inactive: 0.47%. For O=P1(N(CCCl)CCCl)Nc2ccccc2N1, the inhibition (reported as % activation of signal) was inactive: -1.82%. In the case of O=C(OC1CN2CCC1CC2)C12CC3CC(CC(C3)C1)C2 (configuration not stated), the inhibition (reported as % activation of signal) is reported as inactive: 3.58%. With Cc1cc(=O)[nH]c(N[N+](=O)[O-])n1 the inhibition (reported as % activation of signal) was inactive: 1.51%. Cc1c2c(nc3ccccc13)SC(C(Cl)Cl)C2 (configuration not stated) was tested, and the inhibition (reported as % activation of signal) was inactive: 1.65%. For CCC(C)N(CC(C)C)C(=S)SC(NC(C)=O)C(Cl)(Cl)Cl (configuration not stated), the inhibition (reported as % activation of signal) was inactive: -13.4%. With CCOC(=O)c1ccc(NC(=O)C(C)(CCl)SC)cc1 (configuration not stated) the inhibition (reported as % activation of signal) was inactive: 0.33%. For O=C(OC1CN2CCC1CC2)c1cccc([N+](=O)[O-])c1 (configuration not stated), the inhibition (reported as % activation of signal) was inactive: 2.73%. In the case of CSc1ccc(Nc2c([N+](=O)[O-])cc([N+](=O)[O-])cc2[N+](=O)[O-])cc1, the inhibition (reported as % activation of signal) is reported as inactive: 4.55%. In the case of O=C(COc1ccccc1)OC1CN2CCC1CC2 (configuration not stated), the inhibition (reported as % activation of signal) is reported as inactive: -2.21%. O=C(Nc1ccncc1[N+](=O)[O-])c1ccc([N+](=O)[O-])cc1[N+](=O)[O-] was tested, and the inhibition (reported as % activation of signal) was inactive: -0.38%. O=C(O)C(=O)c1ccc(N(CCCl)CCCl)cc1 was tested, and the inhibition (reported as % activation of signal) was inactive: 1.66%. In the case of COP1(=S)c2c(C)nn(CCC#N)c2N=C(c2ccc(F)cc2)N1C (configuration not stated), the inhibition (reported as % activation of signal) is reported as inactive: 0.42%. For COC(=O)C1(C)COP(=O)(N2CCCC2)OC1 (configuration not stated), the inhibition (reported as % activation of signal) was inactive: -0.77%. With O=[N+]([O-])c1ccc(Nc2ccc(Oc3ccc([N+](=O)[O-])cc3[N+](=O)[O-])cc2)c([N+](=O)[O-])c1 the inhibition (reported as % activation of signal) was inactive: 14.8%. In the case of Cc1cc(SC(NC=O)C(Cl)(Cl)Cl)ncn1 (configuration not stated), the inhibition (reported as % activation of signal) is reported as inactive: 3.11%. O=P(Nc1ccccn1)(c1cccc2ccccc12)c1cccc2ccccc12 was tested, and the inhibition (reported as % activation of signal) was inactive: -0.36%. CCOC(=O)Nc1cccc([As](=O)(O)O)c1 was tested, and the inhibition (reported as % activation of signal) was inactive: -11.2%. For CCCCOc1ccc(C(=O)NCC2(N3CCCCC3)CCCCC2)cc1OC, the inhibition (reported as % activation of signal) was inactive: -1.41%. For Cc1cc(SC(NC(=O)c2ccccc2)C(Cl)(Cl)Cl)nc(C(C)C)n1 (configuration not stated), the inhibition (reported as % activation of signal) was inactive: -0.74%. For COP(=O)(OC)N1CC1c1ccccc1 (configuration not stated), the inhibition (reported as % activation of signal) was inactive: 1.66%. In the case of CC1CCNP(=O)(N(CCCl)CCCl)O1 (configuration not stated), the inhibition (reported as % activation of signal) is reported as inactive: 4.13%. In the case of O=C(O)C(O)c1ccc(N(CCCl)CCCl)cc1 (configuration not stated), the inhibition (reported as % activation of signal) is reported as inactive: -7.39%. In the case of CCOC(=O)Nc1ccc([As](=O)(O)O)c(O)c1, the inhibition (reported as % activation of signal) is reported as inactive: 0.65%.
